Broadly, the Kd is the concentration at which binding is half-saturated. The low end stands for higher affinity, the high end for lower affinity. The term kon denotes the rate constant with which the complex forms. A higher kon goes with faster complex formation.

In the test the target is T1, RSPO3 (Homo sapiens, UniProt Q9BXY4).
T1 sequence (Q9BXY4 22-272): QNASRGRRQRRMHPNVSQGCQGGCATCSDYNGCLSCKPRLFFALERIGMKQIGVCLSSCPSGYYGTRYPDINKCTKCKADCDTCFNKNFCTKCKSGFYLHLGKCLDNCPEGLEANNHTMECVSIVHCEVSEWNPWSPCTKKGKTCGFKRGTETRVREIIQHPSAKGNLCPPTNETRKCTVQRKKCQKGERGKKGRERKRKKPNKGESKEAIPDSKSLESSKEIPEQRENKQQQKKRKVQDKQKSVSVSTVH
Briefly: Octet (ForteBio) kinetic binding to biotinylated RSPO3. As to conditions: 30° C. The procedure: The streptavidin-coated sensors were coated with 10 μg/ml of biotinylated RSPO3 as described in the handbook of ForteBio. Antibody concentrations were in the range of 0.75 and 93.8 nM. Quantitative kinetic binding analysis was performed with pH-adjusted PBS with 0.5% BSA. All steps were run at 30° C. with a continuous shaking speed at 1000 rpm.
To assess the RSPO3-binding affinities of the antibodies, kinetics assays were performed by the Octetsystems. The purified monoclonal antibodies (mAbs) from batch-A clones (A1, A4, A6, A9), along with the reference Ab-131R002, were examined for binding with RSPO-3.
(In general: BLI is a label-free optical method that tracks binding on a fibre tip over time.)

For the substance “Erbitux: antibody listed in Table 3 beside the anti-RSPO3 antibodies in the Octet RSPO3 binding test [reference compound]”, the affinity, expressed as Kd, was 976 µM; the RMax is given as 9.7173; the “kdis” value worked out at 0.0249 s⁻¹; the on-rate constant (kon) turned out to be 25.5 M⁻¹ s⁻¹.

Values taken from US11623951B2, “Antibodies to R-spondin 3” (National Health Research Institutes, priority 2017, dated 2023).
